## Yeast mating assay B: variants of the scFv Ab-14

Binding partner: SARS-CoV-2 spike HR2 peptide, sequence PDVDLGDISGINAS.

Parent scFv Ab-14: VH joined to VL by a (GGGGS)3 linker. Changes lie in the light chain CDRs alone.
VH: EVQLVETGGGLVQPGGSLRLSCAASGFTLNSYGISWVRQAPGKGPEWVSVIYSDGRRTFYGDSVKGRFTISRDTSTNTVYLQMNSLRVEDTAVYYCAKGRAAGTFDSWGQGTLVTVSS
VL: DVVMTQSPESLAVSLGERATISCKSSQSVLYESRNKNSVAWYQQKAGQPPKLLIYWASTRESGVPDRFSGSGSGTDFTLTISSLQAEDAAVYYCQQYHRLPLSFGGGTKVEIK

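This is the validation round: designs drawn from the data on random variants, tested in the same kind of assay. Group labels follow the data file (En: ensemble of fine-tuned language models; GP: Gaussian process model; HC: hill climbing; Gen: genetic algorithm; Gibbs: Gibbs sampling; a sequence that several methods proposed may carry one label only). In AlphaSeq, yeast of one mating type display the scFv and yeast of the other type display the target. Pairs that bind mate more often; barcode pairs of the diploids are counted by sequencing. Each replicate has its own calibration line, from reference interactions of the BCL2 family. The assay was run in six technical replicates.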

The parent's light chain CDRs are KSSQSVLYESRNKNSVA, WASTRES, QQYHRLPLS; each variant's own CDRs replace them letter for letter. This list holds designs with more than six substitutions. The Kd shown is the geometric mean over detected replicates; a lower Kd is a better binder. The list is sorted by this average, lowest first. Of ten entries with the parent sequence, four were seen in most replicates (averages 2.2 nM to 240 nM), three in one and three in none, so single entries are noisy. A sequence measured in both rounds can read differently, since the two assays cover different ranges. The authors' rule: three or more of the six replicates give a measured affinity, fewer mean a poor binder. As a blank, each scFv also met three strains without target: over all light chain designs, 4% of these pairings were detected, typically at 430 nM and seldom below 38 nM. The control count says in how many pairings with the empty strains this scFv gave a signal.

With TISMVMNHMTKNPNNVA / NMDMRED / QQYDRLPLS [En_Gen] the result was 400 pM (6 of 6 replicates; controls 0 of 18). With QIDSFYQHGTDQKKAMA / DSSVRTQ / QQYSRLPLS [En_Gibbs] the result was 560 pM (6 of 6 replicates; controls 3 of 18). The variant KLQQQNLYESRNKNNVA / EASQREQ / QQYHRLPLS [GP_Gibbs] showed 630 pM (6 of 6 replicates; controls 0 of 18). The variant KLSQSDGYEARNSNSVA / HASTRED / QQYHRLPLS [GP_Gibbs] gave 1.2 nM (6 of 6 replicates; controls 2 of 18). The variant TLSDVMYMESRNVNSVA / DLVKRES / QQYHRLPLS [En_HC] gave 1.5 nM (6 of 6 replicates; controls 4 of 18). For IVSQLMIWGMHHKNSIA / EAQTRVN / QQYDRLPLF [En_Gen], the assay gave 1.5 nM (6 of 6 replicates; controls 2 of 18). The variant NLPMKELGMSWNANNVA / DSENRIK / QQYSRLPLM [En_Gibbs] gave 1.5 nM (6 of 6 replicates; controls 1 of 18).

The variant KWSCSQLYDSANKNSVA / NASTRMM / QQYHRLPLS [GP_Gibbs] gave 1.6 nM (6 of 6 replicates; controls 2 of 18). The variant KLWQDMYNGRNQANAVA / EGNILAN / QQYARLPFS [En_Gibbs] gave 2.2 nM (6 of 6 replicates; controls 2 of 18). The variant MVNGIMDHLSKHTNNVA / ETTTREE / QQYDRLPLV [En_Gen] showed 2.2 nM (6 of 6 replicates; controls 0 of 18). The variant SMSNLGMVPSVWKNSIA / DSEHVEE / QQYSRLPLT [En_Gibbs] showed 2.6 nM (6 of 6 replicates; controls 1 of 18). The variant HISSMDMLDGGIIHNIA / DTGITER / QQYMRLPLI [En_Gibbs] gave 2.6 nM (6 of 6 replicates; controls 0 of 18). The variant KVSESEEYESRWKNSVA / NASYRES / QQYHRLPLS [GP_Gibbs] showed 2.8 nM (6 of 6 replicates; controls 1 of 18). For ILSQSVLMGSHLKNSVA / QASTRFQ / QQYHRLPLM [En_HC], the assay gave 2.9 nM (6 of 6 replicates; controls 0 of 18).

The variant KISQLVNFEGKNKNSVA / QMSTREQ / QQYDRLPLS [En_HC] showed 3.2 nM (6 of 6 replicates; controls 0 of 18). For KLSWKSLGFENRWMAIA / NTKERNA / QQYARLPLS [En_Gibbs], the assay gave 3.8 nM (6 of 6 replicates; controls 0 of 18). The variant MISDLTMYGMRNKNSVA / DLSTRGS / QQYHRLPLS [En_HC] gave 3.9 nM (6 of 6 replicates; controls 1 of 18). With FLMQSWDYESRPKNSVA / NASTRMS / QQYHRLPLS [GP_Gibbs] the result was 4.4 nM (6 of 6 replicates; controls 1 of 18). The variant MMTWGDDMTTGHQNAIA / HAHERAT / QQYALLPLS [En_Gibbs] showed 4.5 nM (6 of 6 replicates; controls 2 of 18). The variant KIQDNLGTLMEQINSVA / NSEEIVQ / QSYFRLPLS [En_Gibbs] showed 4.9 nM (6 of 6 replicates; controls 0 of 18). For MISMEEAPASQQASSIA / QGGTRAE / QQYNRLPLC [En_Gibbs], the assay gave 5.1 nM (6 of 6 replicates; controls 0 of 18).

The variant KIGLVTNGISFSTSSVA / EQSTREN / QQYDRLPLS [En_HC] gave 5.7 nM (6 of 6 replicates; controls 0 of 18). For SLSAMIQDWDSIHQNIA / EEHMKAQ / QQYNRLPLG [En_Gibbs], the assay gave 5.9 nM (6 of 6 replicates; controls 0 of 18). The variant NLSMHLLDATVKDMSIA / DAELSTM / QQYMRLPLS [En_Gibbs] gave 6.1 nM (6 of 6 replicates; controls 0 of 18). With KLTNVTGTEKVRGNNVA / EMETRER / QQYNRLPLS [En_Gen] the result was 6.8 nM (6 of 6 replicates; controls 0 of 18). With KVQYSMDYESRNKNSVA / EASDRLS / QDYHRLPLS [GP_Gibbs] the result was 7.2 nM (6 of 6 replicates; controls 3 of 18). With KLQQFAEYESRWKNSVA / HASTRLS / QQYHRLPLS [GP_Gibbs] the result was 7.4 nM (6 of 6 replicates; controls 2 of 18). With HVGQTRQADISNKKSVA / EGETLID / QQYGRLPFS [En_Gibbs] the result was 8.0 nM (6 of 6 replicates; controls 1 of 18).

With KISQMVRVGSTLSNSIA / EEVTRAK / QQYHRLPLM [En_Gen] the result was 8.6 nM (3 of 6 replicates; controls 0 of 18). The variant KLRSSTHIESFNKNNVA / EMTTRES / QSYDRLPLS [En_HC] showed 10 nM (6 of 6 replicates; controls 1 of 18). The variant QLYEMLYELSGKTHSVA / DNSTRGD / QQYFRLPLD [En_Gen] gave 13 nM (6 of 6 replicates; controls 1 of 18). The variant TIGQTLMTGVRNRSNVA / EVSERLN / QQYDRLPLF [En_Gen] showed 13 nM (6 of 6 replicates; controls 3 of 18). The variant HISQSFMTEQVWRNNIA / HQSTREQ / QQYDRLPFS [En_HC] gave 16 nM (4 of 6 replicates; controls 0 of 18). For QLSGPMVSESKKKNSVA / EFSTRGS / QQYHRLPLS [En_HC], the assay gave 16 nM (5 of 6 replicates; controls 0 of 18). With KLRSVTGTEKVHGNNVA / EMETRER / QQYNRLPLS [En_Gen] the result was 27 nM (6 of 6 replicates; controls 0 of 18).

The variant TISQMTSLFSQSINNVA / EVSMRES / QQYDRLPLM [En_Gen] showed 34 nM (6 of 6 replicates; controls 3 of 18). The variant TISQMTSLFSQSINNVA / EVSEREK / QQYDRLPLM [En_Gen] gave 42 nM (2 of 6 replicates; controls 0 of 18). For ALEMDTLGQKPKQNNIA / NDRVSTE / QQYYMLPLS [En_Gibbs], the assay gave 54 nM (4 of 6 replicates; controls 0 of 18). The variant IVSQLMLWGMHVKNSIA / EAETRIN / QQYDRLPLF [En_Gen] gave 56 nM (5 of 6 replicates; controls 0 of 18).

Excerpt, the final 6 entries:

CDR-L1	CDR-L2	CDR-L3	group	Kd	seen in	control signals
QLSGPMVSESKKKNSVA	EFSTRGS	QQYHRLPLS	En_HC	16 nM	5 of 6	0 of 18
KLRSVTGTEKVHGNNVA	EMETRER	QQYNRLPLS	En_Gen	27 nM	6 of 6	0 of 18
TISQMTSLFSQSINNVA	EVSMRES	QQYDRLPLM	En_Gen	34 nM	6 of 6	3 of 18
TISQMTSLFSQSINNVA	EVSEREK	QQYDRLPLM	En_Gen	42 nM	2 of 6	0 of 18
ALEMDTLGQKPKQNNIA	NDRVSTE	QQYYMLPLS	En_Gibbs	54 nM	4 of 6	0 of 18
IVSQLMLWGMHVKNSIA	EAETRIN	QQYDRLPLF	En_Gen	56 nM	5 of 6	0 of 18

Values reported by Li et al. 2023, doi:10.1038/s41467-023-39022-2 (FLAb copy).